In patent publication US7192924B2, “Corticotropin releasing factor 2 receptor agonists” (priority 2002, dated 2007):

Legend:
CRF2R = biological target: T1, CRF2R (Homo sapiens, UniProt Q13324); experiment: CRF2R agonist activity (EC50, Emax), called comparative CRF binding; format: cell-based
T1 sequence (Q13324 1-411): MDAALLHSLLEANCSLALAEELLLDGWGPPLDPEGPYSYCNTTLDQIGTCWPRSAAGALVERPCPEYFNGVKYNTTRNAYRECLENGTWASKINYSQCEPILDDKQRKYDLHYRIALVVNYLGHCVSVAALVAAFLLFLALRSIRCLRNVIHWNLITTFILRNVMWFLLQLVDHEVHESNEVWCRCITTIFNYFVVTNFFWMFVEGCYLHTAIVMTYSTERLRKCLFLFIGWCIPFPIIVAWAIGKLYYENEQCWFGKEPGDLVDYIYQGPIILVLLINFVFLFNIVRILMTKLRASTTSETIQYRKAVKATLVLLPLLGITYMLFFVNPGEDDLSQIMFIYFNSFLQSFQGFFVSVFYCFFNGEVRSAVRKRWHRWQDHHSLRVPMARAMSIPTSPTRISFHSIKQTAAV
Summary of the method: (§1)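 Cells expressing only CRF1R or CRF2R (recombinant, or with the other receptor disabled or its signal subtracted) were treated with peptide or vehicle control. Activation was read as cAMP induction in cell lysates or via a cAMP-responsive-element reporter gene.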

CRF1R = biological target: T2, CRF1R (Homo sapiens, UniProt P34998); experiment: CRF1R agonist activity (EC50, Emax), called comparative CRF binding; format: cell-based
T2 sequence (P34998 24-415): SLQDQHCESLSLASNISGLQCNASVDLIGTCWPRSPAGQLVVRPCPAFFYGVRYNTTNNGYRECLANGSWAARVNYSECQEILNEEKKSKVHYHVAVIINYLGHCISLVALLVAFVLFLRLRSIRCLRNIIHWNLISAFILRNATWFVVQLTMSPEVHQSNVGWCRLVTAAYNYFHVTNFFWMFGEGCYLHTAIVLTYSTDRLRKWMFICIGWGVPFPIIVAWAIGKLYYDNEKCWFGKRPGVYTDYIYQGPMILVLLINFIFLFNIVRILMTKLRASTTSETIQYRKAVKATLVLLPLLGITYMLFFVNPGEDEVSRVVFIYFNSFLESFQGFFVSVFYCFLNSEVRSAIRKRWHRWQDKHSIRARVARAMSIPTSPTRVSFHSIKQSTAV
Summary of the method: as §1

Compound | EC50 (CRF2R; read-out: CRF2R EC50) [nM] | EC50 (CRF1R; read-out: CRF1R EC50) [nM] | EC50 (CRF2R) [nM] | EC50 (CRF1R) [nM]
CC[C@H](C)[C@H](NC(=O)[C@H](CCCNC(=N)N)NC(=O)[C@H](C)NC(=O)[C@H](CC(N)=O)NC(=O)[C@@H](NC(=O)[C@@H](NC(=O)[C@H](C)NC(=O)[C@H](CCC(N)=O)NC(=O)[C@H](CCC(N)=O)NC(=O)[C@H](CCCCN)NC(=O)[C@H](CCC(=O)O)NC(=O)[C@H](CCCCN)NC(=O)[C@H](CCC(=O)O)NC(=O)[C@H](CCC(N)=O)NC(=O)[C@H](CCCCN)NC(=O)[C@H](CCC(=O)O)NC(=O)[C@@H](NC(=O)[C@H](CCC(=O)O)NC(=O)[C@@H](NC(=O)[C@H](CCSC)NC(=O)[C@H](CCCCN)NC(=O)[C@H](CCCNC(=N)N)NC(=O)[C@H](CC(C)C)NC(=O)[C@H](CC(C)C)NC(=O)[C@H](CCC(=O)O)NC(=O)[C@H](CC(C)C)NC(=O)[C@@H]1CCCN1C(=O)[C@H](CC(C)C)NC(=O)[C@H](CC(=O)O)NC(=O)[C@@H](NC(=O)[C@H](CO)NC(=O)[C@@H](NC(=O)[C@@H]1CCCN1C(=O)[C@@H]1CCCN1C(=O)CNC(=O)[C@@H]1CCC(=O)N1)[C@@H](C)CC)[C@@H](C)CC)[C@@H](C)CC)[C@@H](C)CC)[C@@H](C)O)[C@@H](C)O)C(=O)N[C@@H](CC(C)C)C(=O)N[C@@H](C)C(=O)N[C@@H](CCCNC(=N)N)C(=O)N[C@H](C(N)=O)C(C)C [compound 143] | 11.1 | 232 | – | –
CC[C@H](C)[C@H](NC(=O)[C@H](CCCNC(=N)N)NC(=O)[C@H](C)NC(=O)[C@H](CC(N)=O)NC(=O)[C@@H](NC(=O)[C@@H](NC(=O)[C@H](C)NC(=O)[C@H](CCC(N)=O)NC(=O)[C@H](CCC(N)=O)NC(=O)[C@H](CCCCN)NC(=O)[C@H](CCC(=O)O)NC(=O)[C@H](CCCCN)NC(=O)[C@H](CCC(=O)O)NC(=O)[C@H](CCC(N)=O)NC(=O)[C@H](CCCCN)NC(=O)[C@H](CCC(=O)O)NC(=O)[C@@H](NC(=O)[C@H](CCC(=O)O)NC(=O)[C@@H](NC(=O)[C@H](CCSC)NC(=O)[C@H](CCCCN)NC(=O)[C@H](CCCNC(=N)N)NC(=O)[C@H](CC(C)C)NC(=O)[C@H](CC(C)C)NC(=O)[C@H](Cc1c[nH]cn1)NC(=O)[C@H](CC(C)C)NC(=O)[C@@H]1CCCN1C(=O)[C@H](CC(C)C)NC(=O)[C@H](CC(=O)O)NC(=O)[C@@H](NC(=O)[C@H](CO)NC(=O)[C@@H](NC(=O)[C@@H]1CCCN1C(=O)[C@@H]1CCCN1C(=O)CNC(=O)[C@@H]1CCC(=O)N1)[C@@H](C)CC)[C@@H](C)CC)[C@@H](C)CC)[C@@H](C)CC)[C@@H](C)O)[C@@H](C)O)C(=O)N[C@@H](CC(C)C)C(=O)N[C@@H](C)C(=O)N[C@@H](CCCNC(=N)N)C(=O)N[C@H](C(N)=O)C(C)C [compound 145] | – | – | 7.8 | 196
CC[C@H](C)[C@H](NC(=O)[C@H](CCCNC(=N)N)NC(=O)[C@H](C)NC(=O)[C@H](CC(N)=O)NC(=O)[C@@H](NC(=O)[C@@H](NC(=O)[C@H](C)NC(=O)[C@H](CCC(N)=O)NC(=O)[C@H](CCC(N)=O)NC(=O)[C@H](CCCCN)NC(=O)[C@H](CCC(=O)O)NC(=O)[C@H](CCCCN)NC(=O)[C@H](CCC(=O)O)NC(=O)[C@H](CCC(N)=O)NC(=O)[C@H](CCCCN)NC(=O)[C@H](CCC(=O)O)NC(=O)[C@@H](NC(=O)[C@H](CCC(=O)O)NC(=O)[C@@H](NC(=O)[C@H](CCSC)NC(=O)[C@H](CCCCN)NC(=O)[C@H](CCCNC(=N)N)NC(=O)[C@H](CC(C)C)NC(=O)[C@H](CC(C)C)NC(=O)[C@H](CCC(N)=O)NC(=O)[C@H](Cc1ccccc1)NC(=O)[C@@H]1CCCN1C(=O)[C@H](CC(C)C)NC(=O)[C@H](CC(=O)O)NC(=O)[C@@H](NC(=O)[C@H](CO)NC(=O)[C@@H](NC(=O)[C@@H]1CCCN1C(=O)[C@@H]1CCCN1C(=O)CNC(=O)[C@@H]1CCC(=O)N1)[C@@H](C)CC)[C@@H](C)CC)[C@@H](C)CC)[C@@H](C)CC)[C@@H](C)O)[C@@H](C)O)C(=O)N[C@@H](CC(C)C)C(=O)N[C@@H](C)C(=O)N[C@@H](CCCNC(=N)N)C(=O)N[C@H](C(N)=O)C(C)C [compound 148] | – | – | 9.45 | 295
CC[C@H](C)[C@H](NC(=O)[C@H](CCCNC(=N)N)NC(=O)[C@H](C)NC(=O)[C@H](CC(N)=O)NC(=O)[C@@H](NC(=O)[C@@H](NC(=O)[C@H](C)NC(=O)[C@H](CCC(N)=O)NC(=O)[C@H](CCC(N)=O)NC(=O)[C@H](CCCCN)NC(=O)[C@H](CCC(=O)O)NC(=O)[C@H](CCCCN)NC(=O)[C@H](CCC(=O)O)NC(=O)[C@H](CCC(N)=O)NC(=O)[C@H](CCCCN)NC(=O)[C@H](CCC(=O)O)NC(=O)[C@@H](NC(=O)[C@H](CCC(=O)O)NC(=O)[C@@H](NC(=O)[C@H](CCSC)NC(=O)[C@H](CCCCN)NC(=O)[C@H](CCCNC(=N)N)NC(=O)[C@H](CC(C)C)NC(=O)[C@H](CC(C)C)NC(=O)[C@H](CCC(N)=O)NC(=O)[C@@H](NC(=O)[C@@H]1CCCN1C(=O)[C@H](CC(C)C)NC(=O)[C@H](CC(=O)O)NC(=O)[C@@H](NC(=O)[C@H](CO)NC(=O)[C@@H](NC(=O)[C@@H]1CCCN1C(=O)[C@@H]1CCCN1C(=O)CNC(=O)[C@@H]1CCC(=O)N1)[C@@H](C)CC)[C@@H](C)CC)[C@@H](C)CC)[C@@H](C)CC)[C@@H](C)CC)[C@@H](C)O)[C@@H](C)O)C(=O)N[C@@H](CC(C)C)C(=O)N[C@@H](C)C(=O)N[C@@H](CCCNC(=N)N)C(=O)N[C@H](C(N)=O)C(C)C [compound 150] | 34.6 | ≥ 1000 | – | –
CC[C@H](C)[C@H](NC(=O)[C@@H](NC(=O)[C@H](CC(=O)O)NC(=O)[C@H](CC(C)C)NC(=O)[C@H](CC(C)C)NC(=O)[C@H](CC(C)C)NC(=O)[C@H](CCCNC(=N)N)NC(=O)[C@H](CC(N)=O)NC(=O)[C@H](CC(N)=O)NC(=O)[C@H](C)NC(=O)[C@H](C)NC(=O)[C@H](CCC(N)=O)NC(=O)[C@H](CCC(N)=O)NC(=O)[C@H](CCCCN)NC(=O)[C@H](CCC(=O)O)NC(=O)[C@H](CCCCN)NC(=O)[C@H](CCC(=O)O)NC(=O)[C@H](CCC(N)=O)NC(=O)[C@H](CCCCN)NC(=O)[C@H](CCC(=O)O)NC(=O)[C@@H](NC(=O)[C@H](CCC(=O)O)NC(=O)[C@@H](NC(=O)[C@H](CCSC)NC(=O)[C@H](CCCCN)NC(=O)[C@H](CCCNC(=N)N)NC(=O)[C@H](CC(C)C)NC(=O)[C@H](CC(C)C)NC(=O)CNC(=O)[C@@H](NC(=O)[C@@H]1CCCN1C(=O)[C@@H](NC(=O)[C@H](CC(=O)O)NC(=O)[C@H](CC(C)C)NC(=O)[C@H](CO)NC(=O)[C@H](CC(C)C)NC(=O)[C@@H](NC(=O)[C@@H](NC(=O)CNC(=O)[C@@H]1CCC(=O)N1)[C@@H](C)CC)C(C)C)C(C)C)[C@@H](C)CC)[C@@H](C)CC)[C@@H](C)CC)[C@@H](C)O)C(N)=O [compound 153] | 9.28 | > 100 | – | –
CC[C@H](C)[C@H](NC(=O)[C@H](CCCNC(=N)N)NC(=O)[C@H](C)NC(=O)[C@H](CC(N)=O)NC(=O)[C@@H](NC(=O)[C@@H](NC(=O)[C@H](C)NC(=O)[C@H](CCC(N)=O)NC(=O)[C@H](CCC(=O)O)NC(=O)[C@H](CCCNC(=N)N)NC(=O)[C@H](C)NC(=O)[C@H](C)NC(=O)[C@H](CCCNC(=N)N)NC(=O)[C@H](C)NC(=O)[C@H](CCCNC(=N)N)NC(=O)[C@H](C)NC(=O)[C@H](CCC(N)=O)NC(=O)[C@H](CCC(=O)O)NC(=O)[C@@H](NC(=O)[C@H](CCSC)NC(=O)[C@H](CCCCN)NC(=O)[C@H](CCCNC(=N)N)NC(=O)[C@H](CC(C)C)NC(=O)[C@H](CC(C)C)NC(=O)[C@H](CCC(=O)O)NC(=O)[C@H](CC(C)C)NC(=O)[C@H](CO)NC(=O)[C@H](CC(C)C)NC(=O)[C@H](CC(=O)O)NC(=O)[C@@H](NC(=O)[C@H](CO)NC(=O)[C@@H](NC(=O)[C@@H]1CCCN1C(=O)[C@@H]1CCCN1C(=O)CNC(=O)[C@@H]1CCC(=O)N1)[C@@H](C)CC)[C@@H](C)CC)[C@@H](C)CC)[C@@H](C)O)[C@@H](C)O)C(=O)N[C@@H](CC(C)C)C(=O)N[C@@H](C)C(=O)N[C@@H](CCCNC(=N)N)C(=O)N[C@H](C(N)=O)C(C)C [compound 156] | – | – | 9.29 | > 100
CC[C@H](C)[C@H](NC(=O)[C@H](CCCNC(=N)N)NC(=O)[C@H](C)NC(=O)[C@H](CC(N)=O)NC(=O)[C@@H](NC(=O)[C@@H](NC(=O)[C@H](C)NC(=O)[C@H](CCC(N)=O)NC(=O)[C@H](CCC(N)=O)NC(=O)[C@H](CCCCN)NC(=O)[C@H](CCC(=O)O)NC(=O)[C@H](CCCCN)NC(=O)[C@H](CCC(=O)O)NC(=O)[C@H](CCC(N)=O)NC(=O)[C@H](CCCCN)NC(=O)[C@H](CCC(=O)O)NC(=O)[C@@H](NC(=O)[C@H](CCC(=O)O)NC(=O)[C@@H](NC(=O)[C@H](CC(C)C)NC(=O)[C@@H](NC(=O)[C@H](CCCNC(=N)N)NC(=O)[C@H](CC(C)C)NC(=O)[C@H](CC(C)C)NC(=O)[C@H](CCC(N)=O)NC(=O)[C@H](Cc1ccccc1)NC(=O)[C@@H]1CCCN1C(=O)[C@@H](NC(=O)[C@H](CC(=O)O)NC(=O)[C@@H](NC(=O)[C@H](CO)NC(=O)[C@@H](NC(=O)[C@@H]1CCCN1C(=O)[C@@H]1CCCN1C(=O)CNC(=O)[C@@H]1CCC(=O)N1)[C@@H](C)CC)[C@@H](C)CC)C(C)C)[C@@H](C)CC)[C@@H](C)CC)[C@@H](C)CC)[C@@H](C)O)[C@@H](C)O)C(=O)N[C@@H](CC(C)C)C(=O)N[C@@H](C)C(=O)N[C@@H](CCCNC(=N)N)C(=O)N[C@H](C(N)=O)C(C)C [compound 171] | – | – | 17.6 | 206

Where two headings read alike, the source gives them in different places.
